The values that follow come from ChEMBL document CHEMBL1121721 (J Med Chem, 1981).

Chains of the proteins cited; added tags and fusions are not shown.
UniProt P32300, whole entry: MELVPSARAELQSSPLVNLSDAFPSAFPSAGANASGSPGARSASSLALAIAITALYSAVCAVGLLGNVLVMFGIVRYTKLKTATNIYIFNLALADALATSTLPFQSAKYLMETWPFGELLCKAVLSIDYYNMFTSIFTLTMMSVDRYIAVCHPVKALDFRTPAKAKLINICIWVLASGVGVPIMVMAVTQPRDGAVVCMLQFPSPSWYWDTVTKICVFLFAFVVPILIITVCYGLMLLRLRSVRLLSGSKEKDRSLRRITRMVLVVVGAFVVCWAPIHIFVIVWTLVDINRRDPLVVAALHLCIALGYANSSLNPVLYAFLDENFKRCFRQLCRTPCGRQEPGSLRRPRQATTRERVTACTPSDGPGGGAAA

What is called IC50 is the concentration needed to halve the response being measured. A high value points to weaker potency in that assay.

For the test, the target named is Delta-type opioid receptor (Mus musculus, UniProt P32300). Nature of the test: Inhibitory potency against delta Opioid receptor delta 1 in longitudinal muscle preparation of mouse vas deferens.

For the compound `CSCC[C@H](NC(=O)[C@H](Cc1ccccc1)NC(=O)CNC(=O)CNC(=O)[C@@H](N)Cc1ccc(O)cc1)C(=O)O`, the IC50 turned out to be 13 nM.
